Test results: US20250074890A1, “CYANOPYRIDINE AND CYANOPYRIMIDINE BCL6 DEGRADERS” (DANA-FARBER CANCER INSTITUTE, INC., priority 2021, published 2025)

Target: BCL6 (Homo sapiens, UniProt P41182)
Assay: HiBiT cellular degradation assay in Su-DHL-4 cells
Conditions: read-out: HiBiT SU-DHL-4 DC50, concentration to reach 50% degradation of endogenous SmBiT-tagged BCL6, 24 hours of compound treatment
Procedure: DC50 (concentration to reach 50% degradation) values were determined from a cellular degradation assay (HiBiT, Promega™) in Su-DHL-4 cells (Table 1). Endogenous BCL6 was tagged with the 11-amino acid SmBiT through CRISPR/Cas9 gene editing and single cell clone selection. After 24 hours of compound treatment, cells were lysed and incubated with LgBiT protein to reconstitute intact nanoluciferase. Substrate was then added and relative luciferase units were measured. Degradation levels for each treatment were taken as a percentage compared to the control, 100% DMSO (Prism).

Structure (SMILES): CNC(=O)COc1cc2cc(Nc3ncc(C#N)c(N4CC(C)C(F)(F)C(CCN)C4)n3)ccc2n(C)c1=O (stereo not shown)
- DC50: 60 nM
